# The entries are a selection whose mix differs from that of the whole data set. Results filed as inconclusive are left out. Activity calls are given as the source filed them. Calls come from the whole dose curve; as a rule, active = well fitted inhibition curve with a large enough effect; inconclusive = small, poorly fitted or top-dose-only effect; inactive = no such curve, though single readings can be large or run the other way.
# By UniProt entry, the sequences of proteins in these tests, tags left out. Where a name states a change or a piece, a line headed by the entry shows the natural chain unless it says otherwise.
# UniProt Q9HC16: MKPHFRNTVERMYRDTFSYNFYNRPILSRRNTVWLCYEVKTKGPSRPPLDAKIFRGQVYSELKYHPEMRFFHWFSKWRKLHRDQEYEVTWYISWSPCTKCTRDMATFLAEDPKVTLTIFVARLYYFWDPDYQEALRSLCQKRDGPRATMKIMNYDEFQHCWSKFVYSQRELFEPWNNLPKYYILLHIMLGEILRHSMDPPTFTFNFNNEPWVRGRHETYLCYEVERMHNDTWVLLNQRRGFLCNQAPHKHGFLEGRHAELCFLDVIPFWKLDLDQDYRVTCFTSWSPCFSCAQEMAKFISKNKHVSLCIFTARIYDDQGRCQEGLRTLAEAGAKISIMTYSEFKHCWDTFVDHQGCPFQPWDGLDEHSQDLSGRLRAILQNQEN
# Biological target: DNA dC->dU-editing enzyme APOBEC-3G (Homo sapiens) (UniProt Q9HC16)
# Assay: qHTS for inhibitors of Vif-A3G interactions: Cherry picks counterscreen;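 note: hits raise yellow fluorescence by blocking Vif-driven A3G-eYFP degradation; nearly all actives have a fitted effect of over 70% in size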
# Details: HeLa A3G-eYFP + Vif (tagged APOBEC3G with the HIV-1 protein that degrades it), eYFP fluorescence, 24 h
# From the text: The recent discovery and characterization of host restriction factors, which provide a potent defense to invading retroviruses, has provided new targets for antiviral drug development. APOBEC3G (A3G) and APOBEC3F (A3F) are potent cytidine deaminases that block HIV-1 replication; HIV-1 expresses the Vif protein, which counteracts A3G and A3F by binding to them and inducing their proteasomal degradation. The Vif-A3G and Vif-A3F interactions provide two potential targets for development of small molecules which can interfere with the ability of Vif to degrade A3G or A3F. […] To identify inhibitors that can interfere with Vif mediated degradation of A3G and A3F, we have developed Hela cell lines that stably express A3G or A3F tagged with eYFP at the C-terminal end (A3G-eYFP or A3F-eYFP, respectively) and Vif. In the absence of an inhibitor, Vif induces degradation of A3G-eYFP and A3F-eYFP, and the cells are not fluorescent. In the presence of an inhibitor, it is expected that Vif will be unable to degrade A3G-eYFP and/or A3F-eYFP, resulting in an increase in yellow fluorescence. […]
# A3G-Vif cells were harvested from T225 flask and resuspended in phenol free OPTI-MEM medium with 5% FBS. […] After that, the plates were measured on Acumen Explorer (TTP Lab Tech). The fluorescence was detected by 488 nm/Ex and […].
# Potency is the fitted concentration of half-maximal effect.
row,SMILES,Potency
1,CC[n+]1c(/C=C/N(C)c2ccccc2)oc2ccccc21,active: 6.51 µM
